These results are taken from patent US20140222443A1, “MOLECULAR PROFILING FOR CANCER” (priority 2011, published 2014).

The test system of experiment [1] is HER2 positive breast cancers. The conditions noted are these: unselected HER2+ patients; cited from earlier work.
Experiment [2] relates to HER2 positive breast cancers. Put plainly: Response of HER2 positive breast cancer patients to trastuzumab. The class given is in vivo, human. The conditions noted are these: after excluding patients unlikely to respond (PIK3CA mutation, lack of PTEN, p95 HER2 truncation). An excerpt: An illustrative benefit of the molecular profiling approach is illustrated in FIG. 46. For every 100 HER2+ patients, only about 30 (30%) will be Responders to treatment with trastuzumab. Molecular profiling according to the Example identifies 50 (50%) out of the 70 patients (70%) not likely to respond, e.g., because of PIK3CA mutations (25%), lack of PTEN (15%) or a p95 HER2 truncation (10%). HER2 spans the cell membrane and trastuzumab binds the external portion of the protein. However, most HER2 tests, including the FDA approved tests available from Dako (Dako North America, Inc., Carpinteria, Calif.) and Ventana (Ventana Medical Systems, Inc., Tucson, Ariz.), target the internal domain of HER2. Profiling according to the invention uses two antibodies for HER2: one with affinity to the internal domain, another with affinity to both the internal and external domains. If the latter antibody is negative but the tests targeting the internal domain are positive (e.g., the FDA approved tests), then HER2 is “p95 truncated” and trastuzumab will not be effective. By identifying patients unlikely to respond, efficacy of trastuzumab for a selected population can be increased from 30% to 60%. Furthermore, the molecular profiling methods of the invention can identify candidate treatments that are more likely to be effective in the trastuzumab non-responders.

On to trastuzumab, for which, in experiment [1], the “percentage of HER2 positive breast cancers likely to respond (Responders)” value is “about 30%”. Moreover, the “efficacy for a selected population” value in experiment [2] stood at 60%.
